SMILES strings stand for the structures. Where “and” joins values, the source holds several entries; their conditions need not be identical. Equal values may be shown once. Where only a bound is given, the exact number is not on record here.

Sequences of proteins named here, by UniProt entry; tags and fusion partners are left off. Residues count along the entry.
UniProt P36544, 23-502 limits assumed: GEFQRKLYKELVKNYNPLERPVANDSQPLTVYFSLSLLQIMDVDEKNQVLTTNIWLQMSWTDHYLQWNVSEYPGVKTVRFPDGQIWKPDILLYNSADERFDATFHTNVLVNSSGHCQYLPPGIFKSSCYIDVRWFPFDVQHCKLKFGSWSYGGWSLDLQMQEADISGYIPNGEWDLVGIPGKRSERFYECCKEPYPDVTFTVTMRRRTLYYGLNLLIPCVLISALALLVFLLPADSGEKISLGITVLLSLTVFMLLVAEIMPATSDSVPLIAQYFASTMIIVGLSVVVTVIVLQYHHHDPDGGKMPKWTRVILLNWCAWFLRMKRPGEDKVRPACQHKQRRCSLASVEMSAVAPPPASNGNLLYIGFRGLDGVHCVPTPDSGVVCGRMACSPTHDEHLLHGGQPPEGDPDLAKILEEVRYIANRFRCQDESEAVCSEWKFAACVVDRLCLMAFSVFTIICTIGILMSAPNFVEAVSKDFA

This test concerns the target Neuronal acetylcholine receptor subunit alpha-7 (Homo sapiens, UniProt P36544).
By Ki is commonly meant the dissociation constant of the complex between target and ligand, obtained from inhibition or displacement. The compound `Cc1c(Cl)ccc2cc(C(=O)N[C@@H]3C4CCN(CC4)C3(C)C)sc12` returned a Ki of 92 nM. For the compound `O=C(N[C@@H]1C2CCN(CC2)C12CC2)c1cc2cccc(-c3ccccc3)c2s1`, the affinity, expressed as Ki, was 310 nM.

The compound `O=C(N[C@@H]1C2CCN(CC2)C12CC2)c1ccc2occ(Cl)c2c1` came in with a Ki of 310 nM. As for `O=C(N[C@@H]1C2CCN(CC2)C12CC2)c1cc2ccc(F)c(F)c2s1`, the affinity, expressed as Ki, was 790 nM. Take `CC1(C)[C@H](NC(=O)c2cc3ccc(F)c(Cl)c3s2)C2CCN1CC2`: the inhibition constant (Ki) is 420 nM. `CC1(C)[C@H](NC(=O)c2ccc3sccc3c2)C2CCN1CC2` had an inhibition constant Ki of 940 nM. The same measure for `Cc1ccc2cc(C(=O)N[C@@H]3C4CCN(CC4)C3(C)C)sc2c1C(F)(F)F`: 710 nM; for `O=C(N[C@@H]1C2CCN(CC2)C12CC2)c1ccc2sccc2c1`: 320 nM.

For `CC1(C)[C@H](NC(=O)c2cc3ccc(C4CC4)cc3s2)C2CCN1CC2`, the Ki came out at 355 nM. In turn, `O=C(N[C@@H]1C2CCN(CC2)C12CC2)c1nc2ccccc2o1` had a Ki of 1300 nM. In turn, `O=C(N[C@@H]1C2CCN(CC2)C12CC2)c1ccc2oc(Cl)cc2c1` returned an inhibition constant Ki of 330 nM. With `CCOc1cccc2cc(C(=O)N[C@@H]3C4CCN(CC4)C34CC4)sc12`, the affinity, expressed as Ki, was 200 nM. The same measure for `CCOc1ccc2cc(C(=O)N[C@@H]3C4CCN(CC4)C34CC4)sc2c1`: 1200 nM; for `O=C(N[C@@H]1C2CCN(CC2)C12CC2)c1cc2ccccc2[nH]1`: 810 nM; for `CC1(c2cccc3cc(C(=O)N[C@@H]4C5CCN(CC5)C45CC5)sc23)CC1`: 540 nM. On to `COc1c(C)ccc2cc(C(=O)N[C@@H]3C4CCN(CC4)C3(C)C)sc12`, for which the affinity, expressed as Ki, was 560 nM. In turn, `O=C(N[C@H]1C2CCN(CC2)C12CC2)c1cc2ccoc2cn1` showed an inhibitory constant (Ki) of 11000 nM. The same measure for `O=C(N[C@@H]1C2CCN(CC2)C12CC2)c1cc2ccc(N3CCC(F)(F)CC3)cc2s1`: 21000 nM. In turn, `O=C(N[C@@H]1C2CCN(CC2)C12CC2)c1cc2ccc3c(c2s1)OCCC3` had a Ki of 150 nM. The compound `COc1ccc2cc(C(=O)N[C@@H]3C4CCN(CC4)C3(C)C)sc2c1C(F)(F)F` came in with an inhibition constant Ki of 8400 nM.

Regarding `CC1(C)[C@H](NC(=O)c2cc3cccnc3s2)C2CCN1CC2`, the Ki stood at 5000 nM. Regarding `O=C(N[C@@H]1C2CCN(CC2)C12CC2)c1cc2ccc(C3CC3)c(Cl)c2s1`, the affinity corresponds to a Ki of 3400 nM. `COc1ccc2cc(C(=O)N[C@@H]3C4CCN(CC4)C34CC4)sc2c1Cl`: the inhibitory constant (Ki) was 800 nM. For the compound `O=C(N[C@@H]1C2CCN(CC2)C12CC2)c1cc2c(s1)CCCC2`, the Ki is 12000 nM. Consider `COc1ccc2sc(C(=O)NC3C4CCN(CC4)C34CC4)cc2c1` (single isomer, unassigned), for which the inhibitory constant (Ki) is 8200 nM and 20000 nM.

`CC1(C)[C@@H](NC(=O)c2n[nH]c3ccccc23)C2CCN1CC2` registered an inhibitory constant (Ki) of 7900 nM. Regarding `COc1c(C2CC2)ccc2cc(C(=O)N[C@@H]3C4CCN(CC4)C34CC4)sc12`, the affinity corresponds to a Ki of 2600 nM.

Consider `CC1(C)[C@H](NC(=O)c2cc3ccc(Cl)cc3s2)C2CCN1CC2`, for which the Ki stood at 495 nM. The compound `CC1(C)[C@H](NC(=O)c2cc3cccc(-c4ccccc4)c3s2)C2CCN1CC2` came in with a Ki of 250 nM. In turn, `O=C(N[C@@H]1C2CCN(CC2)C12CC2)c1cc2ccsc2cn1` displayed a Ki of 400 nM. The compound `O=C(N[C@@H]1C2CCN(CC2)C12CC2)c1cc2ccoc2cn1` had a Ki of 250 nM. Under `O=C(N[C@@H]1C2CCN(CC2)C12CC2)c1cc2cccc(CC(F)(F)F)c2s1` stands 315 nM; under `CC1(C)[C@H](NC(=O)c2cc3cccc(C#N)c3s2)C2CCN1CC2`, 550 nM; under `COc1c(F)ccc2cc(C(=O)N[C@@H]3C4CCN(CC4)C3(C)C)sc12`, 570 nM.

`O=C(N[C@@H]1C2CCN(CC2)C12CC2)c1cc2ccc(Cl)cc2o1`: affinity was put at a Ki of 860 nM. `CC1(C)[C@H](NC(=O)c2cc3ccc(C#N)cc3s2)C2CCN1CC2` had a Ki of 17000 nM. Under `CC1(C)[C@H](NC(=O)c2cc3ccsc3cn2)C2CCN1CC2` stands 480 nM; under `Cc1nc2ccc(C(=O)N[C@@H]3C4CCN(CC4)C34CC4)cc2s1`, 6400 nM.

`CC(C)Oc1ccc2cc(C(=O)N[C@@H]3C4CCN(CC4)C3(C)C)sc2c1` gave a Ki of 14000 nM. `Cc1nc2cc(C(=O)N[C@@H]3C4CCN(CC4)C3(C)C)ccc2s1`: the Ki stood at 4600 nM. The same measure for `CCOc1ccc2cc(C(=O)N[C@@H]3C4CCN(CC4)C3(C)C)sc2c1`: 1400 nM; for `Cc1nc2ccc(C(=O)N[C@@H]3C4CCN(CC4)C3(C)C)cc2s1`: 7500 nM; for `CC1(C)[C@H](NC(=O)c2cc3ccncc3s2)C2CCN1CC2`: 5400 nM. Under `CC1(C)[C@H](NC(=O)c2cc3cc(Cl)c(Cl)cc3s2)C2CCN1CC2` stands 25000 nM. As to `CC1(C)[C@@H](NC(=O)c2cc3ccc(F)cc3s2)C2CCN1CC2`, the Ki is 22000 nM. The same measure for `CC1(C)[C@@H](NC(=O)c2cc3cccc(Cl)c3s2)C2CCN1CC2`: 3800 nM.

In turn, `N#Cc1ccc2cc(C(=O)N[C@@H]3C4CCN(CC4)C34CC4)sc2c1` showed a Ki of 7900 nM. For the compound `Cc1c(Cl)ccc2cc(C(=O)N[C@@H]3C4CCN(CC4)C34CC4)sc12`, the affinity, expressed as Ki, was 47 nM. Turning to `O=C(N[C@@H]1C2CCN(CC2)C12CC2)c1cc2ccncc2s1`, the inhibitory constant (Ki) is 900 nM. As to `Cc1csc2cc(C(=O)N[C@@H]3C4CCN(CC4)C3(C)C)ccc12`, the inhibition constant Ki was 9800 nM. As to `O=C(N[C@@H]1C2CCN(CC2)C12CC2)c1nc2ccccc2[nH]1`, the Ki was 8700 nM.

`CC1(C)[C@H](NC(=O)c2cc3cccc(Cl)c3o2)C2CCN1CC2` yielded an inhibitory constant (Ki) of 3000 nM. With `CC1(C)[C@H](NC(=O)c2ccc(Cl)c(Cl)c2)C2CCN1CC2`, the Ki is 4900 nM.

On to `COCc1ccc2cc(C(=O)N[C@@H]3C4CCN(CC4)C34CC4)sc2c1`, for which the inhibitory constant (Ki) was 1800 nM. The same measure for `CC1(C)[C@H](NC(=O)c2ccc3cccnc3c2)C2CCN1CC2`: 19000 nM. On to `CC1(C)[C@H](NC(=O)c2ccc3occ(Cl)c3c2)C2CCN1CC2`, for which the inhibitory constant (Ki) is 640 nM. With `O=C(N[C@@H]1C2CCN(CC2)C12CC2)c1ccc(Cl)c(Cl)c1`, the affinity, expressed as Ki, was 2000 nM. The same measure for `CC1(C)[C@H](NC(=O)c2cc3ccc(C4CC4)c(F)c3s2)C2CCN1CC2`: 2700 nM; for `Cc1ccc2cc(C(=O)N[C@@H]3C4CCN(CC4)C3(C)C)sc2c1`: 380 nM.

`CC1(C)[C@H](NC(=O)c2cc3cc(Cl)ccc3s2)C2CCN1CC2` yielded an inhibitory constant (Ki) of 3000 nM. `Cc1ccc2cc(C(=O)N[C@@H]3C4CCN(CC4)C34CC4)sc2c1C1CC1` returned an inhibition constant Ki of 240 nM. With `Cc1ccc2cc(C(=O)N[C@@H]3C4CCN(CC4)C3(C)C)sc2c1F`, affinity was put at a Ki of 380 nM. The same measure for `Cc1ccc2cc(C(=O)N[C@@H]3C4CCN(CC4)C34CC4)sc2c1F`: 150 nM; for `O=C(N[C@@H]1C2CCN(CC2)C12CC2)c1cc2ccc(C3COC3)cc2s1`: 11000 nM; for `O=C(NC1C2CCN(CC2)C12CC2)c1ccc(Cl)cc1` (stereo unspecified): 1900 nM. Regarding `Cc1nc2cc(C(=O)N[C@@H]3C4CCN(CC4)C3(C)C)ccc2o1`, the affinity corresponds to a Ki of 11000 nM. `CC1(C)[C@H](NC(=O)c2cc3ccc(Cl)cc3o2)C2CCN1CC2` registered an inhibitory constant (Ki) of 4000 nM. `CC1(C)[C@@H](NC(=O)c2cc3cc(F)ccc3s2)C2CCN1CC2` returned a Ki of 11000 nM. In the case of `CC1(C)[C@H](NC(=O)c2cc3cccc(F)c3s2)C2CCN1CC2`, affinity was put at a Ki of 240 nM. Regarding `CC1(C)[C@H](NC(=O)c2cc3cccc(C(F)(F)F)c3s2)C2CCN1CC2`, the affinity corresponds to a Ki of 300 nM. In turn, `CC1(C)[C@H](NC(=O)c2cc3ccc4c(c3s2)CCCO4)C2CCN1CC2` had an inhibitory constant (Ki) of 180 nM. Turning to `O=C(N[C@@H]1C2CCN(CC2)C12CC2)c1cc2ccc(Br)cc2s1`, the Ki stood at 250 nM. The same measure for `CC1(C)[C@H](NC(=O)c2ccc3ncccc3c2)C2CCN1CC2`: > 30000 nM.

In the case of `COc1c(Cl)ccc2cc(C(=O)N[C@@H]3C4CCN(CC4)C34CC4)sc12`, the Ki amounted to 220 nM. Regarding `Cc1cc2ccc(C(=O)N[C@@H]3C4CCN(CC4)C34CC4)cc2s1`, the affinity corresponds to a Ki of 160 nM. As to `O=C(N[C@@H]1C2CCN(CC2)C12CC2)c1cc2ccccc2cn1`, the affinity, expressed as Ki, was 1500 nM. `Cn1cnc2ccc(C(=O)N[C@@H]3C4CCN(CC4)C34CC4)cc21` had a Ki of 18000 nM.

Consider `Nc1ncc2cc(C(=O)N[C@@H]3C4CCN(CC4)C34CC4)sc2n1`, for which the inhibition constant (Ki) was determined as 790 nM. Under `O=C(N[C@@H]1C2CCN(CC2)C12CC2)c1ccc2[nH]ccc2c1` stands 4000 nM; under `O=C(N[C@@H]1C2CCN(CC2)C12CC2)c1cc2cccc(C3(C(F)(F)F)CC3)c2s1`, 2500 nM. Compound `CCOc1cccc2cc(C(=O)N[C@@H]3C4CCN(CC4)C3(C)C)sc12` had an inhibition constant Ki of 580 nM. Turning to `CC1(C)[C@@H](NC(=O)c2ccc3ccsc3c2)C2CCN1CC2`, the Ki came out at 14000 nM.

`Cn1c(C(=O)N[C@@H]2C3CCN(CC3)C23CC3)nc2ccccc21` had a Ki of 20000 nM. The same measure for `O=C(N[C@@H]1C2CCN(CC2)C12CC2)c1cc2ccc(F)c(C(F)(F)F)c2s1`: 1600 nM; for `CC1(C)[C@H](NC(=O)c2ccc3occc3c2)C2CCN1CC2`: 925 nM; for `O=C(N[C@@H]1C2CCN(CC2)C12CC2)c1ccc2ccoc2c1`: 1300 nM.

On to `CC1(C)[C@H](NC(=O)c2cc3cc(F)c(F)cc3s2)C2CCN1CC2`, for which the affinity corresponds to a Ki of 2700 nM. In turn, `CC(C)Oc1cccc2cc(C(=O)N[C@@H]3C4CCN(CC4)C34CC4)sc12` had a Ki of 220 nM. Regarding `CC1(C)[C@H](NC(=O)c2cc3ccccc3[nH]2)C2CCN1CC2`, the affinity, expressed as Ki, was 1100 nM. Regarding `CC1(c2cccc3cc(C(=O)N[C@@H]4C5CCN(CC5)C4(C)C)sc23)CC1`, the affinity, expressed as Ki, was 1400 nM. Under `O=C(N[C@@H]1C2CCN(CC2)C12CC2)c1cc2ccc(Cl)c(Cl)c2s1` stands 54.5 nM; under `CN(C)c1ccc2cc(C(=O)N[C@@H]3C4CCN(CC4)C34CC4)sc2c1`, 6900 nM; under `CC1(C)[C@H](NC(=O)c2ccc3[nH]ccc3c2)C2CCN1CC2`, 6900 nM.

`Cc1csc2ccc(C(=O)N[C@@H]3C4CCN(CC4)C3(C)C)cc12` returned a Ki of 1100 nM. In turn, `O=C(N[C@@H]1C2CCN(CC2)C12CC2)c1ccc2cc[nH]c2c1` came in with an inhibitory constant (Ki) of 240 nM.

Regarding `Cc1cccc2cc(C(=O)N[C@@H]3C4CCN(CC4)C3(C)C)sc12`, the Ki turned out to be 140 nM.

Values taken from ChEMBL document CHEMBL5726183, “Geminal substituted quinuclidine amide compounds as agonists of α-7 nicotonic acetylcholine receptors” (2019).
